From PubChem BioAssay AID504327 (National Center for Advancing Translational Sciences (NCATS), 2011)
Several values for one entry are separate records, joined by “and”; a condition that tells them apart may be missing. Equal values may be shown once. The list shows a part of the results, in another mix than the full data. Inconclusive results are not listed. Activity calls are given as the source filed them. Calls come from the whole dose curve; as a rule, active = well fitted inhibition curve with a large enough effect; inconclusive = small, poorly fitted or top-dose-only effect, or another doubt; inactive = no such curve, though single readings can be large or run the other way.

Chains of the proteins cited; added tags and fusions are not shown.
UniProt Q92830, whole entry: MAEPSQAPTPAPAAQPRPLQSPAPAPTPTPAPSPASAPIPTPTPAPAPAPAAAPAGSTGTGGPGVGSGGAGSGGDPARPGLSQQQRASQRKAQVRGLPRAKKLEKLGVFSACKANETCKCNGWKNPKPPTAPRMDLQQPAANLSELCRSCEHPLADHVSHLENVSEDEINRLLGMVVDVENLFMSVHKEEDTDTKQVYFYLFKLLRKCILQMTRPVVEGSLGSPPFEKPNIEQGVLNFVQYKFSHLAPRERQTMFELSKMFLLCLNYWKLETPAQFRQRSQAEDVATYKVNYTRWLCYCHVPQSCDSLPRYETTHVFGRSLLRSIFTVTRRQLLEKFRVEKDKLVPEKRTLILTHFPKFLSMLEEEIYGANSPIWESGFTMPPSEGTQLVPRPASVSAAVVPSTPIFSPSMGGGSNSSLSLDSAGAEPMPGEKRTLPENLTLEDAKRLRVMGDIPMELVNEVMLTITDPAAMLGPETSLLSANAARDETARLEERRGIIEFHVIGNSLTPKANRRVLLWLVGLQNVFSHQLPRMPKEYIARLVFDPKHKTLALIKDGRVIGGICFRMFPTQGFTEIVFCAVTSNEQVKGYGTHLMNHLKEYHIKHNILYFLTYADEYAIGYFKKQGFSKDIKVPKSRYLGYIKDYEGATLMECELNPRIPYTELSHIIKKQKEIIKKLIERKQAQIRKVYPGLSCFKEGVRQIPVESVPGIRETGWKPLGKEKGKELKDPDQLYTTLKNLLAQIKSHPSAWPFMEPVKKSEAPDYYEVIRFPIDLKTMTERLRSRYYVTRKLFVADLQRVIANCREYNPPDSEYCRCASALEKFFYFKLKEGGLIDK

target: Histone acetyltransferase KAT2A (Homo sapiens) (UniProt Q92830); assay: qHTS Assay for Inhibitors of GCN5L2; details: GCN5L2 HAT assay, ThioGlo1 CoA-SH fluorescence; at 58.9 µM (top of the series)
% is set by controls: 0 for no effect and ±100 for the full control effect.

SMILES	activity change, negative = inhibition
CCC(=O)N(c1ccccc1)C1(COC)CCN(CCn2nnn(CC)c2=O)CC1	inactive: -1.08%
CCC(=O)N(c1ccccc1)C1(COC)CCN(CCc2cccs2)CC1	inactive: -2.35%
CN(CCCl)CCCl	inactive: -11.4% and inactive: 4.24%
